The values that follow come from patent US8293742B2, “Preferential vasoconstriction compositions and methods of use” (Alpha Synergy Development, Inc., priority 2008, dated 2012).

Series [1] has as its system vasoconstriction, rebound hyperemia, intraocular pressure, corneal endothelial cell pump. As to conditions: concentrations of brimonidine of 0.10% and higher, FIG. 2.
Another series has as its system nasal congestion. The note with it: 0.03% nasal spray repeated for one week, n of 1.
The test system of series [2] is eyes of a patient with an ocular condition. As to conditions: brimonidine at 0.033%, left eye, 4 hrs after FIG. 4D.
A further series deals with rebound hyperemia. As to conditions: current concentration range for treating glaucoma of about 0.1% to 0.2%; cited from earlier work.
The subject of series [3] is postoperative hyperemia and conjunctival hemorrhage. The note with it: Brimonidine 0.2%, used off label; cited from earlier work.
For series [4] the test system is unchanged. In words: Lasik prophylaxis (Example 2).

As for `Brc1c(N=C2NCCN2)ccc2nccnc12.O=C(O)C(O)C(O)C(=O)O` [brimonidine, 5-bromo-6-(2-imidazolidinylideneamino)quinoxaline L-tartrate], the rebound result in series [1] is “rebound virtually identical to tetrahydrozaline, naphazoline and oxymetazoline”; in the series with nasal congestion, “without rebound”. In addition, in series [2], the “rebound hyperemia after third application” value is on record as “without rebound hyperemia”. The “rebound hyperemia (primary or delayed onset vasodilation)” value in the series with rebound hyperemia is reported as “significant rebound hyperemia”. Moreover, the flap dislocation rates in series [3] is 5-10%. Moreover, the Flap dislocation rate entry is “under 1%” in series [4] (Lasik, Naphcon-A 50 patients (85 procedures), brimonidine 0.02% 10-20 minutes preoperatively, initial trial) and “under 1%” in series [4] (brimonidine 0.02%, group expanded to over 500 eyes). Besides, the adverse cardiovascular events entry in series [4] (brimonidine 0.02%) is “No adverse cardiovascular events occurred”. Also, in series [4] (brimonidine 0.02%), the allergic reactions result was “No significant allergic reactions”.
